Laboratory results: BindingDB's records for doi:10.1016/s0006-2952(97)00631-x (Roche Bioscience, 1998)

By UniProt entry, the sequences of proteins in these tests, tags left out.
UniProt P18089, whole entry: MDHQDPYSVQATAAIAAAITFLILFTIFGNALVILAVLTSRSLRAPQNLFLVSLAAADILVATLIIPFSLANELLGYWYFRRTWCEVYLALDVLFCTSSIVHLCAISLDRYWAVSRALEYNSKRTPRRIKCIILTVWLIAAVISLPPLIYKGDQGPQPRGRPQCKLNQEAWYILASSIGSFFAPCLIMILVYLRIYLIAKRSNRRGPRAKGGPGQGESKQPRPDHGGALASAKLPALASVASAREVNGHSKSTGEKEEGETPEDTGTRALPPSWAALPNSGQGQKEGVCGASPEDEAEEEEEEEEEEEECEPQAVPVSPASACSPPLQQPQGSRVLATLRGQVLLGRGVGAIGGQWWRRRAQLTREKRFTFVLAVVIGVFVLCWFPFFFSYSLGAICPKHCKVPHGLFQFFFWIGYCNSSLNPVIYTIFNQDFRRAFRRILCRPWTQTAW
UniProt Q1HL33, whole entry: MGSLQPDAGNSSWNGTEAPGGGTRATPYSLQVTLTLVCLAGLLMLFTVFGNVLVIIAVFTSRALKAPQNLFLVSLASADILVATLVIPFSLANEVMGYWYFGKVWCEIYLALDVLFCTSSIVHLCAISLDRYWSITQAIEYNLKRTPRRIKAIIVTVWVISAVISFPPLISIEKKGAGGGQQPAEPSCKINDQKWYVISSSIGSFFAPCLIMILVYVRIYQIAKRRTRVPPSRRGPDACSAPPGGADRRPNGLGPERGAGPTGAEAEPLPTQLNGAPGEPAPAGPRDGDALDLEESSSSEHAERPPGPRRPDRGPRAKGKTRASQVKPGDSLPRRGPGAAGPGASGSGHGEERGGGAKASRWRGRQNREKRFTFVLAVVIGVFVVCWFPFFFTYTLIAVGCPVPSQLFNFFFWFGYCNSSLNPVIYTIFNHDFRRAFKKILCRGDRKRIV

What was measured:
[1] = biological target: Alpha-2B adrenergic receptor (Homo sapiens, UniProt P18089)
[2] = biological target: Alpha-2A adrenergic receptor (Mus musculus, UniProt Q1HL33)

| SMILES | Ki [1] [nM] | Ki [2] [nM] |
| --- | --- | --- |
| Nc1cc(Cl)c(N=C2NCCN2)c(Cl)c1 [p-AMINOCLONIDINE] | 29.5 |  |
| COC(=O)[C@@H]1[C@H]2C[C@H]3c4[nH]c5ccccc5c4CCN3C[C@@H]2CC[C@@H]1O [yohimbic acid methyl ester] |  | 61.7 |
